Patent US20070073039A1, “Peptides that inhibit viral infections” (priority 2005, published 2007)

Tested on: JFH-1 virus
Assay: Interferon treatment of Huh-7.5.1 cells before JFH-1 infection
Type: cell-based, Hepatitis C virus (JFH-1)
Details: 5, 50 and 500 IU/mL; Huh-7.5.1, MOI 0.3; 3 days
Description: FIG. 8 graphically illustrates inhibition of HCV infection by interferons. […] The viral inoculum was removed 4 hours later and the cells were further cultured with interferon for 3 days. At that time cells were harvested, RNA was isolated and analyzed by real-time RT-PCR to determine the intracellular HCV RNA levels. Bars represent intracellular HCV RNA levels expressed as a % of the levels obtained in the control infections.
Interferon treatment. […] The inoculum was removed after 3 hours of incubation at 37° C., and fresh DMEM supplemented with the indicated doses of IFN was added to the cells. The efficiency of the infection was monitored 72 hours later by quantitative RT-PCR.

Q: For “IFNα-2a: human IFNα-2a (PBL Biomedical Lab, Piscataway, N.J.)”, which “Inhibition of HCV infection by interferons” value is on record?
A: efficiently inhibit HCV infection
